Values quoted from earlier work, collected in patent US20110184379A1, “METHOD AND SYSTEM TO DEFINE PATIENT SPECIFIC THERAPEUTIC REGIMENS BY MEANS OF PHARMACOKINETIC AND PHARMACODYNAMIC TOOLS” (MEDTRONIC, INC., priority 2008, published 2011).

Conditions: subcutaneously

Substance: interferon-α
- dose administered without adverse reactions: up to 300 million IU/m^2
